Values quoted from earlier work in patent US20090060925A1, “Rage Fusion Proteins and Methods of Use” (THE TRUSTEES OF COLUMBIA UNIVERSITY IN THE CITY OF, priority 2004, published 2009).

Conditions: cited from earlier work

In the case of “sRAGE: RAGE protein that does not include the transmembrane region or the cytoplasmic tail; species not printed at the results [reference compound]”, the “half-life in human plasma, in words” value is listed as “only a few hours”.
